Measurements as given in PMC9182007, “Statistical Methods in the Study of Protein Binding and Its Relationship to Drug Bioavailability in Breast Milk” (Molecules, 2022).

Legend:
[1] = NP TLC on non-impregnated control plates; type: physicochemical; settings: Table S3, non-impregnated NP plate; acetonitrile/acetate buffer pH 7.4/methanol 60:20:20
[2] = RP TLC on non-impregnated control plates; type: physicochemical; settings: Table S4, non-impregnated RP plate; acetonitrile/acetate buffer pH 7.4/methanol 60:20:20

| Structure (SMILES) | CNP (Rf, control NP plate) [1] | CRP (Rf, control RP plate) [2] |
| --- | --- | --- |
| CN1[C@@H]2CC[C@H]1C[C@@H](OC(=O)C(CO)c1ccccc1)C2 (some centres unmarked) [atropine] | 0.27 | 0.73 |
| CN1C(=O)CN=C(c2ccccc2)c2cc(Cl)ccc21 [diazepam] | – | 0.77 |
| O=C1Nc2ccc(Cl)cc2C(c2ccccc2)=NC1O (centres unmarked) [oxazepam] | 0.93 | 0.83 |
